For one molecule, Ki results are on record in BindingDB's records for doi:10.1073/pnas.88.17.7491 (Duke University, 1991).

By UniProt entry, the sequences of proteins in these tests, tags left out.
UniProt P21728, whole entry: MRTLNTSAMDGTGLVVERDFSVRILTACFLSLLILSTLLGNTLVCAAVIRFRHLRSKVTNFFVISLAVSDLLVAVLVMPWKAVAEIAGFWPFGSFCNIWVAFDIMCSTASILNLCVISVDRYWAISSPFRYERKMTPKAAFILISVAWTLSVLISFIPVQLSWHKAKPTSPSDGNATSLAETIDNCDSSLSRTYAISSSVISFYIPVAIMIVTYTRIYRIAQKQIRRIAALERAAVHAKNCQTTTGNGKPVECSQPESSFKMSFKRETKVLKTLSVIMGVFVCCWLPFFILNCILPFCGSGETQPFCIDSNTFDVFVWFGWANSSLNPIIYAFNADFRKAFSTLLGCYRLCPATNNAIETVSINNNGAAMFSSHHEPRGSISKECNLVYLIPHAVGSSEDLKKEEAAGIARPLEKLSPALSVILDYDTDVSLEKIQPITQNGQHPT

The assay deals with D(1A) dopamine receptor (Homo sapiens, UniProt P21728).

In turn, `OCCN1CCN(CCCC2c3ccc(F)cc3Sc3ccc(C(F)(F)F)cc32)CC1` (stereo unspecified) [NSC_68751] showed a Ki of 0.024 µM. This counts as double-digit nanomolar.

One may read the Ki as the equilibrium dissociation constant of an inhibitor or competing ligand from its target. Lower therefore signals tighter binding.
